# What follows is the remainder of the data, with few or none of the highest values.
# System: mPer2Luc MEF
# Test: PER2::LUC luminescence relative to vehicle control (fold of vehicle); higher = higher PER2::LUC reporter signal
# Conditions: 10 µM
# Method in brief: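 The value is PER2::LUC luminescence expressed as fold of vehicle control. Mouse embryonic fibroblasts carrying the mPer2Luc reporter were seeded at ~3000 cells per well in 384-well plates and grown in DMEM with 10% FBS at 37 °C and 5% CO2. Compounds from commercial libraries were added at 10 μM 48 h after seeding, and luminescence was read with the ONE-Glo luciferase assay system 24 h and 30 h after treatment, followed by an alamarBlue viability assay.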
structure (smiles),measurement,setting,value
CC[C@H](C)[C@H](NC(=O)[C@H](CCC(=O)O)NC(=O)C(CCC(=O)O)NC(=O)[C@H](Cc1ccccc1)NC(=O)C(CC(=O)O)NC(=O)CNC(=O)C(CC(N)=O)NC(=O)CNC(=O)CNC(=O)CNC(=O)CNC(=O)[C@@H]1CCCN1C(=O)[C@H](CCCNC(=N)N)NC(=O)[C@@H]1CCCN1C(=O)[C@@H](N)Cc1ccccc1)C(=O)N1CCC[C@H]1C(=O)N[C@@H](CCC(=O)O)C(=O)N[C@@H](CCC(=O)O)C(=O)N[C@@H](Cc1ccc(O)cc1)C(=O)N[C@@H](CC(C)C)C(=O)O (some centres not stated),PER2::LUC luminescence,time after treatment 24 h,1.03
same,PER2::LUC luminescence,time after treatment 30 h,0.923

# Source: the supplement of paper PMC9334596
